The results in this text go back to ChEMBL document CHEMBL6074673, “Discovery of UCB9386: A Potent, Selective, and Brain-Penetrant Nuak1 Inhibitor Suitable for In Vivo Pharmacological Studies” (J Med Chem, 2024).

The chains behind the UniProt entries cited, without tags or fusion partners. Where a name states a change or a piece, a line headed by the entry shows the natural chain unless it says otherwise.
UniProt O60674: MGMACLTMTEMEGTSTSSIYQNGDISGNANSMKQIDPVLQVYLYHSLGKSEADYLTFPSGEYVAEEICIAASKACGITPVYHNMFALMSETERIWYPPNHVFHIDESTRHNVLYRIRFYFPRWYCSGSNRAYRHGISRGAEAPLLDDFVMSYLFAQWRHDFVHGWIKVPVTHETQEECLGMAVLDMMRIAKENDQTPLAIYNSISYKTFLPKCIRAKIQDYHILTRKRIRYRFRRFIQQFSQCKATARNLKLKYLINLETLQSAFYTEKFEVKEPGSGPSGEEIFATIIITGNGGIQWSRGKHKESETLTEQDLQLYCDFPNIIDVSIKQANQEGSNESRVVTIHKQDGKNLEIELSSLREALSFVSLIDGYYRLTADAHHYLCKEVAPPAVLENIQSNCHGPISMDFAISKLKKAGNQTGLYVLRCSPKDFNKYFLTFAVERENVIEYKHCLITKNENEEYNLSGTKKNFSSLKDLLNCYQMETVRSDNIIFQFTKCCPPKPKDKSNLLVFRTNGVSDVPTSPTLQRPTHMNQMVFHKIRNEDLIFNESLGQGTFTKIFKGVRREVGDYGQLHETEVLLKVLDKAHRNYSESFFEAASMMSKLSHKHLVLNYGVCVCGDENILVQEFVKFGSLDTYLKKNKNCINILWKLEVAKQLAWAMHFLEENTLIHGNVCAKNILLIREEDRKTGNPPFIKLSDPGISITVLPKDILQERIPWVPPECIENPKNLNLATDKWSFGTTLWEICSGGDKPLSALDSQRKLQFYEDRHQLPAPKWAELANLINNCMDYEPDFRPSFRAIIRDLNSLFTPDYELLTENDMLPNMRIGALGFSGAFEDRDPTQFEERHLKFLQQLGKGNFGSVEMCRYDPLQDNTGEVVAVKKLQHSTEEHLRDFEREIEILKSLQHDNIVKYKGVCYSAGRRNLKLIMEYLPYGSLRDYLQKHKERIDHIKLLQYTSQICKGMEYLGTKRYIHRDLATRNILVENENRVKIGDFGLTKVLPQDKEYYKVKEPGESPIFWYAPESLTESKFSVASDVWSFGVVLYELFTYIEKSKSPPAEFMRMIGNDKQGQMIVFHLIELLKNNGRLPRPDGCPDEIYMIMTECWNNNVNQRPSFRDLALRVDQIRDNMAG

The target in test [1] is T1, NUAK family SNF1-like kinase 2 (Homo sapiens) (UniProt Q9H093).
T1 sequence (whole entry): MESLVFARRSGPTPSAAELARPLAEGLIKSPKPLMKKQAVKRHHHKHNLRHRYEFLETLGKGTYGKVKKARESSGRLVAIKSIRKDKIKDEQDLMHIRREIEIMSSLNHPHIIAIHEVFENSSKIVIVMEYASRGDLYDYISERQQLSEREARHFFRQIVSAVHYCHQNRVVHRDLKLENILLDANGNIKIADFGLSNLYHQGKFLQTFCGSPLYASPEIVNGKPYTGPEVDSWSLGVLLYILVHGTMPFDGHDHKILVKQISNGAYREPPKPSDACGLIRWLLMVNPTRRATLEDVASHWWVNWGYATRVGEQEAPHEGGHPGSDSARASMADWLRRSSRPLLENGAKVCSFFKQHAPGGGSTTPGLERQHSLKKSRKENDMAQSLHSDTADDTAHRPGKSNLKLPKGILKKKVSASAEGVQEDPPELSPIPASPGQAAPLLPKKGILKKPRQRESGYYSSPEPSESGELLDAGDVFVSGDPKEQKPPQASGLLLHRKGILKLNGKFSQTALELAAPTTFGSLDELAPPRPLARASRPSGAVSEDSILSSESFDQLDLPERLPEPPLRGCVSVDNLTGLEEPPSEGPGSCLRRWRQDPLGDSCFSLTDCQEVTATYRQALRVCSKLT
Kind of test: Inhibition of Nuak2 (unknown origin) at 10 uM relative to control.

Test [2] addresses Tyrosine-protein kinase JAK2 (Homo sapiens) (UniProt O60674). The test can be described thus: Inhibition of Jak2 (unknown origin) at 10 uM relative to control.

The inhibition is how much of the control response was suppressed. A higher inhibition goes with a strong effect.

With `C[C@H](c1ccccc1)n1c(=O)c(N2CC3(CN(C)C3)C2)nc2cnc(-c3cnc4cccnn34)cc21`, the inhibition in test [1] and in test [2] was above 50% in each case.
